Curated experimental data: properties

Values as listed in the OPERA 2.9 repository of K. Mansouri.

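These are experimental values that the OPERA curators gathered from public databases to train and test their QSAR models. The files give a single number for a compound and property, which may rest on several reports. Method and conditions are not stated for these values. A value may pool stereoisomers or salt forms, and the file does not say which form was measured. Some entries may be limits or estimates that an upstream database listed as plain numbers.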

The melting point is given in degrees Celsius. Boiling points are in °C, nominally at 760 mmHg. The octanol-water partition coefficient is given as log10; larger values mean a more lipophilic compound. Solubility in water is on a log10 molar scale (set defined at 25 °C). Vapor pressure is log10 of mmHg; the set covers 15 to 30 °C, mostly 20 to 25 °C. The unbound fraction in human plasma runs from 0 (all bound) to 1 (all free).

The entry for Nc1ccc(Nc2ccccc2)cc1 [N-Phenyl-1,4-benzenediamine] lists log Kow 2.4 and log S -2.565 (log10 mol/L) and plasma fu 0.1434. For O=C(O)[C@H](O)c1ccccc1Cl [(R)-(-)-2-Chloromandelic acid] the data give log Kow 1.51 and vapor pressure -6.581 (log10 mmHg). C=CC(=O)Cc1c(C(C)c2cc(C(C)(C)CC)cc(C(C)(C)CC)c2O)cc(C(C)(C)CC)cc1C(C)(C)CC (stereo not given) is reported with melting point 118.5 °C and log S -8.039 (log10 mol/L). CCN(c1ccccc1)S(=O)(=O)c1ccccc1/N=N/C1C(=O)N(c2cc(Cl)c(S(=O)(=O)[O-])cc2Cl)N=C1C.[Na+] (stereo partly drawn) [C.I. Acid Yellow 61] has log Kow 0.038 and log S -2.43 (log10 mol/L).

CCN(CC)c1ccc(N=Nc2cc(Br)ccn2)c(O)c1 [2-(5-Bromo-2-pyridylazo)-5-diethylaminophenol] is reported with melting point 158 °C and log Kow 4.23. O=CCC/C=C1\CC2CC1C1CCCC21 (stereo partly drawn) [4-(Octahydro-5H-4,7-methanoinden-5-ylidene)butanal] is reported with log S -4.09 (log10 mol/L) and vapor pressure -3.084 (log10 mmHg). The entry for Brc1ccc(Oc2ccccc2Br)cc1 [1-Bromo-2-(4-bromophenoxy)benzene] lists melting point 20 °C and vapor pressure -3.985 (log10 mmHg). CCN(CCO)c1ccc(/N=N/c2sc3cc(OC)ccc3[n+]2C)cc1.[Cl-] has log Kow -1.6 and vapor pressure -7.878 (log10 mmHg).

The entry for N=C(N)NC(=N)NCCc1ccccc1 [Phenformin] lists log S -2.947 (log10 mol/L) and plasma fu 0.84. CCCCCCCCC=CCCCCCCCCO[PH](=O)OCCCCCCCCC=CCCCCCCCC [Phosphonic acid, di-9-octadecenyl ester] is reported with BP 322.1 °C and log S -8.412 (log10 mol/L). Listed for CCCCCCC1=CCCC1=O [2-Hexylcyclopent-2-enone]: melting point -22 °C and log Kow 2.3 and log S -2.819 (log10 mol/L). For COC(Cc1ccccc1)OC [Phenylacetaldehyde dimethyl acetal] the data give log Kow 2.23 and log S -1.63 (log10 mol/L) and vapor pressure 0.272 (log10 mmHg).

C[SiH](C)c1ccccc1 [Benzene, (dimethylsilyl)-] is reported with log Kow 3.99 and vapor pressure 0.565 (log10 mmHg). For CCCCCCCCCCCCCC(=O)OC(C)C [Isopropyl tetradecanoate] the data give log Kow 7.71 and log S -7.29 (log10 mol/L). Listed for CCOC(=O)[C@@H]1[C@@H](C(C)C)[C@@H]2C=C[C@H]1C2: melting point -19.15 °C and BP 196.8 °C and log S -4.104 (log10 mol/L) and vapor pressure 0.201 (log10 mmHg). Listed for CCNC(=S)OC(C)C [Carbamothioic acid, ethyl-, O-(1-methylethyl) ester]: log Kow 2.3 and log S -1.745 (log10 mol/L) and vapor pressure 0.973 (log10 mmHg).

Listed for O=Cc1ccc(B(O)O)cc1 [4-Formylphenylboronic acid]: log Kow 1.36 and log S -2.267 (log10 mol/L) and vapor pressure -6.606 (log10 mmHg). Listed for CC(C)OC(=O)C1(S(=O)(=O)c2ccccc2)CCC1: melting point 50.8 °C and log S -3.34 (log10 mol/L). Listed for CCNc1cccc(C)c1 [N-Ethyl-3-methylaniline]: log S -2.078 (log10 mol/L) and plasma fu 0.1414. FC(F)CCl [Ethane, 2-chloro-1,1-difluoro-] has log Kow 1.3 and vapor pressure 2.647 (log10 mmHg).

Extract of 2 entries:

Brc1ccc(Oc2ccccc2Br)cc1 [1-Bromo-2-(4-bromophenoxy)benzene] has melting point 20 °C and vapor pressure -3.985 (log10 mmHg).
CCNC(=S)OC(C)C [Carbamothioic acid, ethyl-, O-(1-methylethyl) ester] has log Kow 2.3 and log S -1.745 (log10 mol/L) and vapor pressure 0.973 (log10 mmHg).